Measured values reported in patent US20180177890A1, “LIGAND-CYTOTOXIC DRUG CONJUGATE, PREPARATION METHOD THEREOF, AND USE THEREOF” (priority 2015, published 2018).

System: NCI-N87 cells (HER2 overexpressing human gastric cancer cells)
Test: Tumor inhibition rate test of NCI-N87 transplanted tumor in nude mice
Format: in vivo
Conditions: 7.5 mg/kg (first dose doubling), IV, D0, 7
Text: To evaluate and compare the effect of antibody-cytotoxin conjugates according to the present invention on transplanted tumors of NCI-N87 cells (HER2 overexpressing human gastric cancer cells, ATCC, CRL-5822) in nude mice. […] Preparation method: all prepared with physiological saline. […] Feeding environment: SPF level. […] T/C (%)=(T−T0)/(C−C0)×100%, wherein T and C represent the tumor volume at the end of the experiment; T0 and C0 represent the tumor volume at the beginning of the experiment. […] The number of mice at the beginning of the experiment was as follows: Control group n=12, Treatment group n=6.

Trastuzumab
% tumor inhibition rate D21: 60%
Mean tumor volume (mm^3) D21: 366.5 mm^3
